ChEMBL document CHEMBL4308836, “Inhibitors of Mutant Isocitrate Dehydrogenases 1 and 2 (mIDH1/2): An Update and Perspective” (J Med Chem, 2018)

By UniProt entry, the sequences of proteins in these tests, tags left out. Residues count along the entry.
UniProt O75874, 2-414 R132H limits assumed: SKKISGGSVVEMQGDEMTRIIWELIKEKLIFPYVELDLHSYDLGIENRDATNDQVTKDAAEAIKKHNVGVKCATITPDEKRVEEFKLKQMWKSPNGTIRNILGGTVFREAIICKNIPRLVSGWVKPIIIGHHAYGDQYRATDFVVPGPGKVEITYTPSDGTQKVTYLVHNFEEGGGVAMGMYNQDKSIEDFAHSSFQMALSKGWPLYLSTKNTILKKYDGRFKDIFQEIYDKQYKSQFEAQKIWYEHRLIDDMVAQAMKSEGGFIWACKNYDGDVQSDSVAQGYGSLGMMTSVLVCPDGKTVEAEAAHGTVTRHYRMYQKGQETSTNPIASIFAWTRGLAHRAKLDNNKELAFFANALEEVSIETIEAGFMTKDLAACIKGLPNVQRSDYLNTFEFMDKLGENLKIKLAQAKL
UniProt O75874, 2-414 R132G limits assumed: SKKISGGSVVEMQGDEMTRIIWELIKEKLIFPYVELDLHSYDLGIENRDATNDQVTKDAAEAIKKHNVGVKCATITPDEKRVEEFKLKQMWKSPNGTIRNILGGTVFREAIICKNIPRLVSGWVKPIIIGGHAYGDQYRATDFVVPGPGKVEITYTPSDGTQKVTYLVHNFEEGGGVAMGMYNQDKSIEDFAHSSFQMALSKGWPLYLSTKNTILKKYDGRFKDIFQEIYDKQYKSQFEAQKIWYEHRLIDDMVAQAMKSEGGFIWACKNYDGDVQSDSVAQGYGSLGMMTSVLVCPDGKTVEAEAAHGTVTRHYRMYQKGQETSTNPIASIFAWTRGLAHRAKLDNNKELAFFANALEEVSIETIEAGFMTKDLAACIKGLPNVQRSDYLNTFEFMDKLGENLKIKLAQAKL
UniProt O75874, 2-414 R132C limits assumed: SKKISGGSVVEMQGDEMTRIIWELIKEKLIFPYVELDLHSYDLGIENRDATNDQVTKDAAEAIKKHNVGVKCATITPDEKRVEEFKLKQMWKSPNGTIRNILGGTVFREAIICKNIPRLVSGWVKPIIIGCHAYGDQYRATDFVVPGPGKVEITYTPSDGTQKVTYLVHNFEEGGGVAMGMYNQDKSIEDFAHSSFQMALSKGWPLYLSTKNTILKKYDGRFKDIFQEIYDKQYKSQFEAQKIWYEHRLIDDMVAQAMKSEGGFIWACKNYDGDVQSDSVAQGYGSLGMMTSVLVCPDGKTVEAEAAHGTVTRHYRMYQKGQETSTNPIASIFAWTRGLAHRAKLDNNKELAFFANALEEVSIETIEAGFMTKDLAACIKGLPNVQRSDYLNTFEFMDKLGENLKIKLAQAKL

Tests used:
[1] = target: Isocitrate dehydrogenase [NADP] cytoplasmic (Homo sapiens, UniProt O75874, R132H)
[2] = target: Isocitrate dehydrogenase [NADP] cytoplasmic (Homo sapiens, UniProt O75874, R132G)
[3] = target: Isocitrate dehydrogenase [NADP] cytoplasmic (Homo sapiens, UniProt O75874, R132C)

What does the source list for `C[C@H](O)c1cccc(NC(=O)c2nn(Cc3ccc(F)cc3)c3c2CN(C(=O)c2ccc[nH]2)C[C@H]3C)c1`?
IC50 [1]: 15 nM; IC50 [2]: 17 nM; EC50 [3]: 85 nM; IC50 [3]: 9 nM
